Test results from patent publication US9695160B2, “Piperazine derivatives for treating disorders” (THE UNIVERSITY OF NOTTINGHAM, priority 2014, dated 2017).

Protein sequences, listed by entry. Tags and fused reporters are not part of them.
UniProt Q96SB4, whole entry: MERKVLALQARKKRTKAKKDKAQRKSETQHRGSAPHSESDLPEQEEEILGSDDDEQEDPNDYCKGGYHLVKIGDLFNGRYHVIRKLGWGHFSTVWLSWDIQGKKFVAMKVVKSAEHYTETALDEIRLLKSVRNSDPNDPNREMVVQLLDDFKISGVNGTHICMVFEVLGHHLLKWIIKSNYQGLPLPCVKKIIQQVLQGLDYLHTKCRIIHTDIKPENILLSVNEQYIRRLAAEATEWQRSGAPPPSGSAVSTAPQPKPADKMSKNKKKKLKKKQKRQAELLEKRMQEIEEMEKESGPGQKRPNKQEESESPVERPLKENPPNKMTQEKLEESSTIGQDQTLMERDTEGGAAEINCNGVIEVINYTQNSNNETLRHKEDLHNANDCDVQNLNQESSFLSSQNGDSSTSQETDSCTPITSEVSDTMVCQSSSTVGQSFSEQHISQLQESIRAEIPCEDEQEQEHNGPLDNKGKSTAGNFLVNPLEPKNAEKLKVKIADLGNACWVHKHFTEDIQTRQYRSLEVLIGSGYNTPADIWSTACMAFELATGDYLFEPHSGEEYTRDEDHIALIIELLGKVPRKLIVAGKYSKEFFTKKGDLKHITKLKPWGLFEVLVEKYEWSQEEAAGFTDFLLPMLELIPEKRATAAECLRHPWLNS

Target: SRPK1 (Homo sapiens (Human), UniProt Q96SB4)
Assay: In vitro kinase assay (Kinase-Glo), SRPK1 inhibition
Assay type: biochemical
Details: Table 2, SRPK1 inhibition assay

IC50: 3.51 µM
SMILES: O=C(Nc1cc(C(F)(F)F)ccc1N1CCN(Cc2ccccc2)CC1)c1ccc(-c2ccc3[nH]ccc3c2)o1 [Compound 24]
